The structures appear in SMILES notation.

Data on one compound can be found in US20230190774A1, “METHOD OF USING SUBSTRATES OF AKR1Bl/AKR1B10 AS ANTI-CANCER DRUGS” (Beijing Normal University Hong Kong Baptist University …, priority 2015, published 2023).

The nature of the series: Acute toxicity test in mice. The note with it: i.v., n=8.

As for `O=CC(O)CO` (racemic) [Glyceraldehyde, glyceraldehyde], the Death/Total is listed as 0/8 (dose 1000 mg/kg BW) and 0/8 (dose 2000 mg/kg BW).
